{
  "sequences": {"note": "Protein sequences, listed by entry. Tags and fused reporters are not part of them.", "UniProt P06401, whole entry": "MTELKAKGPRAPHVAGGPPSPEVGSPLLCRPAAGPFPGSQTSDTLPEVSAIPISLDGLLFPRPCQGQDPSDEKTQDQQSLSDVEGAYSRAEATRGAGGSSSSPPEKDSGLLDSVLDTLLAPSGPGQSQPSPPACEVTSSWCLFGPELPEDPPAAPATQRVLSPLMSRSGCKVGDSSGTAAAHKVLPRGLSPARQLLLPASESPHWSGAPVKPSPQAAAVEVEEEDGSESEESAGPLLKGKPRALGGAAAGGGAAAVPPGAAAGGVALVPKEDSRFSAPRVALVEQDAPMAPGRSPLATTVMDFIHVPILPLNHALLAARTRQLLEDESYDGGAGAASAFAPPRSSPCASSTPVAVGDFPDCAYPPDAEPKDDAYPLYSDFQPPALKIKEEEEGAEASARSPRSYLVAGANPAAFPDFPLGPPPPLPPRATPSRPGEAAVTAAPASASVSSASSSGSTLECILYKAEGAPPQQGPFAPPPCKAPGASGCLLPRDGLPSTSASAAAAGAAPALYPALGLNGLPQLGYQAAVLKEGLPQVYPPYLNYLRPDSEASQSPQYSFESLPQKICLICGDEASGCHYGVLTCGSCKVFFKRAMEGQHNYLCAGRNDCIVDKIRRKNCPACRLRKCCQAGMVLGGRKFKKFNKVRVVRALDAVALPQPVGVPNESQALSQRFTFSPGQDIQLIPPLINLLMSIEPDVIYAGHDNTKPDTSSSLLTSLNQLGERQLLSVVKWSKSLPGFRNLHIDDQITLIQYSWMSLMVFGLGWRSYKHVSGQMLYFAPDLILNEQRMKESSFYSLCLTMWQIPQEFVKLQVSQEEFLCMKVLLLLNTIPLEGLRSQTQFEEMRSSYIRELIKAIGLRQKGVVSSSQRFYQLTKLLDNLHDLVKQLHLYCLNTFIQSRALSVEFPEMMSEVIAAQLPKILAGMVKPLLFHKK"},
  "source": "PubChem BioAssay (Tox21)",
  "note": "“And” between values parts separate entries of the source, which are not always exact repeats. Equal entries are not always repeated. This is a selection; strong and weak results do not stand in their true shares. Records with an inconclusive call do not appear. The source made the active and inactive calls. Unless noted, the call rests on the fitted dose curve; in most records, active means well fitted curve in the direction sought with a large enough effect in the repeat runs; inconclusive means weak or mixed curves; inactive means no such curve, though single readings can be large; an effect the other way counts as inactive or inconclusive. On the % scale 0 is the no-effect control and ±100 the full control effect.",
  "data": [
    {"target": "Progesterone receptor (Homo sapiens) (UniProt P06401)", "test": "qHTS assay to identify small molecule agonists of the progesterone receptor (PR) signaling pathway (AID 1346784; calls by dose curve; further: nearly all actives have a fitted effect of over 30% in size)", "conditions": "PR-UAS-bla HEK293T, beta-lactamase FRET ratio, 16 h; at 92.4 µM (top of the series) unless noted", "in_short": "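Seed PR-UAS-bla HEK 293T cells (2% charcoal-stripped FBS), incubate 6 hr at 37C; add compounds in DMSO, 16 hr at 37C; add LiveBLAzer B/G substrate, 2 hr RT; read fluorescence intensity.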", "values": [
      {"smiles": "CCOP(=O)(Cl)Cl", "activation": "inactive: 2.53% and inactive: 0.202%"},
      {"smiles": "CCOP(=S)(Cl)OCC", "activation": "inactive: 5.67%"},
      {"smiles": "CCC(=O)N(c1ccccc1)C1CCNCC1", "activation": "inactive: 2.84% [at 42.5 µM]"},
      {"smiles": "CCOC(=O)N1CCC(=O)CC1", "activation": "inactive: -0.0008% [at 42.5 µM]"},
      {"smiles": "ClCCOP(OCCCl)OCCCl", "activation": "inactive: -0.445% and inactive: 1.35%"},
      {"smiles": "CC(C)OP(OC(C)C)OC(C)C", "activation": "inactive: 0.899%"},
      {"smiles": "ClCCNCCCl", "activation": "inactive: -0.14%"}
    ]},
    {"target": "Progesterone receptor (Homo sapiens) (UniProt P06401)", "test": "qHTS assay to identify small molecule antagonists of the progesterone receptor (PR) signaling pathway (AID 1346795; active means well fitted inhibition curve with a large enough effect in the signal ratio in the repeat runs, not every such curve was filed as active; the % refers to the signal ratio)", "conditions": "PR-UAS-bla HEK293T, beta-lactamase FRET ratio, 16 h; at 92.4 µM (top of the series) unless noted", "description": "National Center for Advancing Translational Sciences [NCATS]\nNIH Chemical Genomics Center [NCGC]\nU.S. Environmental Protection Agency [EPA]\nNational Institutes of Environmental Health Sciences [NIEHS]\nNational Toxicology Program [NTP]\nU.S. Food and Drug Administration [FDA]\nProgesterone receptor (PR), a nuclear hormone receptor, plays an important role in development, metabolic homeostasis and reproduction. […] Endocrine disrupting chemicals (EDCs) and their interactions with steroid hormone receptors like PR causes disruption of normal endocrine function. To identify the compounds that inhibit PR signaling, a PR-UAS-bla GripTite cell line i.e. PR-UAS-bla HEK293T (Invitrogen, Carlsbad, CA, USA) containing a beta-lactamase reporter gene under the control of an Upstream Activator Sequence (UAS) was used to screen Tox21 10K compound library.\nTox21 Assay Protocol Summary:\nPR-UAS-bla HEK293T cells were dispensed at 3,000 cells/4 uL of assay medium containing 2% charcoal stripped FBS per well into black wall/clear-bottom 1536-well plates using a Multidrop Combi (ThermoFisher Scientific, Waltham, MA) dispenser. After the assay plates were incubated at a 37C and 5% CO2 for 6 hr, 23 nL of compounds dissolved in DMSO, positive controls or DMSO only was transferred to the assay plate by a Pintool station (Kalypsys, San Diego, CA), followed by addition of 1 uL (1nM as final concentration) of Promegestone (R5020) in assay medium using a BioRAPTR FRD (Flying Reagent Dispenser, Aurora Discovery, San Diego, CA). The plates were incubated at 37C and 5% CO2 for 16 hr. Then 1 uL of LiveBLAzer B/G FRET substrate was added using a FRD. After the plates were incubated at room temperature for 2 hours, fluorescence intensity was measured by an Envision plate reader (PerkinElmer, Shelton, CT).", "values": [
      {"smiles": "CCOP(=O)(Cl)Cl", "activity change, negative = inhibition": "inactive: 10.9% and inactive: 2.39%"},
      {"smiles": "CCOP(=S)(Cl)OCC", "activity change, negative = inhibition": "inactive: 3.01%"},
      {"smiles": "CCC(=O)N(c1ccccc1)C1CCNCC1", "activity change, negative = inhibition": "inactive: 0.594% [at 42.5 µM]"},
      {"smiles": "CCOC(=O)N1CCC(=O)CC1", "activity change, negative = inhibition": "inactive: -0.826% [at 42.5 µM]"},
      {"smiles": "ClCCOP(OCCCl)OCCCl", "activity change, negative = inhibition": "inactive: 1.88% and inactive: 6.57%"},
      {"smiles": "ClCCNCCCl", "activity change, negative = inhibition": "inactive: 0.599%"}
    ]},
    {"test_system": "not listed separately", "test": "qHTS assay to identify small molecule antagonists of the progesterone receptor (PR) signaling pathway - cell viability counter screen (AID 1346798); further: nearly all actives have a fitted effect of over 50% in size", "conditions": "PR-UAS-bla HEK293T viability, CellTiter-Glo luminescence, 16 h; at 92.4 µM (top of the series) unless noted", "in_short": "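Measures cytotoxicity in parallel with the PR antagonist reporter read: HEK293T PR-UAS-bla cells get compound and R5020 for 16 hr, and remaining viable cells are quantified by CellTiter-Glo luminescence.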", "values": [
      {"smiles": "O=[N+]([O-])c1ccccc1[N+](=O)[O-]", "activity change, negative = cytotoxicity": "inactive: 14.2% and inactive: 6.6%"},
      {"smiles": "CCOP(=O)(Cl)Cl", "activity change, negative = cytotoxicity": "inactive: 17.8% and inactive: -5.41%"},
      {"smiles": "CCOP(=S)(Cl)OCC", "activity change, negative = cytotoxicity": "inactive: 10.2%"},
      {"smiles": "CCOC(=O)N1CCC(=O)CC1", "activity change, negative = cytotoxicity": "inactive: -7.13% [at 42.5 µM]"},
      {"smiles": "ClCCOP(OCCCl)OCCCl", "activity change, negative = cytotoxicity": "inactive: 0.523% and inactive: -1.46%"},
      {"smiles": "CC(C)OP(OC(C)C)OC(C)C", "activity change, negative = cytotoxicity": "inactive: -10.7%"},
      {"smiles": "ClCCNCCCl", "activity change, negative = cytotoxicity": "inactive: 13.4%"}
    ]},
    {"test_system": "not listed separately", "test": "qHTS assay to identify small molecule agonists of the progesterone receptor (PR) signaling pathway - cell viability counter screen (AID 1346799; calls by dose curve; further: nearly all actives have a fitted effect of over 45% in size)", "conditions": "PR-UAS-bla HEK293T viability, CellTiter-Glo luminescence, 16 h; at 92.4 µM (top of the series) unless noted", "in_short": "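Using the same plates as the PR reporter screen, HEK293T PR-UAS-bla cells received compounds for 16 hr at 37C and were then lysed with CellTiter-Glo; luminescence was read 30 min later at room temperature.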", "values": [
      {"smiles": "O=[N+]([O-])c1ccccc1[N+](=O)[O-]", "activity change, negative = cytotoxicity": "inactive: 6.24%"},
      {"smiles": "CCOP(=O)(Cl)Cl", "activity change, negative = cytotoxicity": "inactive: -2.63%"},
      {"smiles": "CCOP(=S)(Cl)OCC", "activity change, negative = cytotoxicity": "inactive: -6.7%"},
      {"smiles": "CCC(=O)N(c1ccccc1)C1CCNCC1", "activity change, negative = cytotoxicity": "inactive: 46.5% [at 42.5 µM]"},
      {"smiles": "CCOC(=O)N1CCC(=O)CC1", "activity change, negative = cytotoxicity": "inactive: 8.07% [at 42.5 µM]"},
      {"smiles": "ClCCOP(OCCCl)OCCCl", "activity change, negative = cytotoxicity": "inactive: -2.53% and inactive: -0.209%"},
      {"smiles": "CC(C)OP(OC(C)C)OC(C)C", "activity change, negative = cytotoxicity": "inactive: -18.5%"},
      {"smiles": "ClCCNCCCl", "activity change, negative = cytotoxicity": "inactive: -10.2%"}
    ]},
    {"test_system": "not listed separately", "test": "qHTS assay to identify small molecule antagonists of the TGF-beta/Smad signaling pathway - cell viability counter screen (AID 1346824); further: nearly all actives have a fitted effect of over 50% in size", "conditions": "SBE-bla HEK293T viability, CellTiter-Glo luminescence; at 76.8 µM (top of the series) unless noted", "in_short": "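SBE-bla HEK 293T cells were plated overnight at 37 C, then given compounds in DMSO plus TGF-beta1 (added as 0.25 ng/mL solution) for 5 hr. After the bla read, CellTiter-Glo was added to the same wells and luminescence read after 30 min at room temperature.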", "values": [
      {"smiles": "O=[N+]([O-])c1ccccc1[N+](=O)[O-]", "viability change, negative = cytotoxic": "inactive: -0.865% and inactive: -2.51%"},
      {"smiles": "CCOP(=O)(Cl)Cl", "viability change, negative = cytotoxic": "inactive: 1.63% and inactive: -5.5%"},
      {"smiles": "CCOP(=S)(Cl)OCC", "viability change, negative = cytotoxic": "inactive: -18.9%"},
      {"smiles": "CCC(=O)N(c1ccccc1)C1CCNCC1", "viability change, negative = cytotoxic": "inactive: -6.45% [at 35.3 µM]"},
      {"smiles": "CCOC(=O)N1CCC(=O)CC1", "viability change, negative = cytotoxic": "inactive: -4.87% [at 35.3 µM]"},
      {"smiles": "ClCCOP(OCCCl)OCCCl", "viability change, negative = cytotoxic": "inactive: 14.5% and inactive: 15.4%"},
      {"smiles": "CC(C)OP(OC(C)C)OC(C)C", "viability change, negative = cytotoxic": "inactive: -0.778%"},
      {"smiles": "ClCCNCCCl", "viability change, negative = cytotoxic": "inactive: -0.576%"}
    ]}
  ]
}
